Rows were chosen to be rich in hits. Some 1.8% of all compounds tested hit in one or more screens of this group.
DENV2 CPE rescue: inhibitors of DENV2 cytopathic effect, primary screen, cell-based, plate reader, single concentration; DENV2-infected cells, cytopathic effect rescue; CPE inhibition, % at 9.99 µM; actives 1.7% (n = 350,000); AID 651640, 2012; in the data active = CPE inhibition above about 20%, passing the limit was not always enough; inconclusive = no clear call, values can overlap the other calls; tested in BHK-21 cells;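 also: 0% = median of neutral control wells and 100% = median of positive control wells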
UUG fidelity: modulators of yeast start codon fidelity, primary screen, whole organism, S. cerevisiae, single point, plate reader | AID 602363, 2012 | actives 0.13% (n = 350,000) | activity score, % at 18.7 µM | S. cerevisiae UUG-firefly luciferase reporter, luminescence/redox ratio;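 active means replicate mean at a twofold rise or more, about +100% in these data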;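 further: firefly luciferase made from a UUG start codon reports start codon fidelity; reporter light over untreated wells divided by growth signal over untreated wells; some hits fall short of that in this replicate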
E-sel inducer: E-selectin induction in HUVECs, primary screen, imaging, HUVEC, immunofluorescence imaging, single point; P16581; normalized: neutral wells 0, TNF-alpha wells 100; activation, % at 7.58 µM; actives 0.37% (n = 260,000);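 active = mean E-selectin-positive cell signal at least 10% of the positive control, reached in at least 60% of replicates, without over 20% cell loss; inconclusive = no rule given, readout overlaps actives, possibly toxicity-flagged; inactive = the rest, including those meeting only one limit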
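Assay system: HUVEC primary endothelial cells. Input: 3,000 HUVEC seeded per well. Doses: one compound dose added by pin transfer. Read-out basis: % PE-positive cells. Benchmarks: TNF-alpha high, DMSO low. Detection: immunofluorescence imaging. Buffer or medium: EGM-2, gelatin.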
Cneo AK release: Cryptococcus neoformans cell lysis inducers, primary screen, AK release luminescence, single concentration | C. neoformans lysis, adenylate kinase release luminescence, 4 h; normalised: neutral wells 0, clomiphene wells 100 | lysis activity, % at 15 µM | actives 0.2% (n = 360,000);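 active = mean lysis activity across replicates of at least 80%, whatever share of replicates individually reach that level; inactive = mean lysis activity below 80%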
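Signal: Adenylate kinase release luminescence | Assay system: Log-phase Cryptococcus neoformans yeast cells | Input: Cells at 5 × 10^6 per mL | Buffer or medium: Fresh YPD growth medium | Compound: Single dose | Schedule: Static 4 h at 37 °C with compound, 1 h detection | Controls: Clomiphene | Read-out: Luminescence rise reflecting yeast cell lysis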
Starred values were filed as active, the others as inactive; ? = inconclusive; nt = not tested or not shown.

structure,DENV2 CPE rescue,UUG fidelity,E-sel inducer,Cneo AK release
O=C(C[C@@H]1CC[C@H]2[C@@H](COC[C@H](O)CN2C(=O)c2ccncc2)O1)NCc1cccc(F)c1,0,nt,0,-4
COCC(=O)N1CC2(C1)[C@H](c1ccc(-c3cccc(C)c3)cc1)[C@H](CO)N2C(=O)C1CC1,49*,nt,0,nt
COCC(=O)N1[C@@H](CO)[C@H](c2ccc(-c3cccc(OC)c3)cc2)C12CN(C(C)=O)C2,31*,nt,0,nt
COCC(=O)N1CC2(C1)[C@H](c1ccc(-c3cccc(C)c3)cc1)[C@@H](CO)N2C(=O)C1CC1,-15,nt,0,nt
CCCN(C)C[C@@H]1Oc2ncc(-c3cccnc3)cc2C(=O)N([C@H](C)CO)C[C@H]1C,1,-6,0,6
CC(=O)N1[C@H](CO)[C@H](c2ccccc2)C12CN(C(=O)CN1CCOCC1)C2,83*,nt,0,nt
CC(=O)N1[C@H](CO)[C@@H](c2ccccc2)C12CN(C(=O)c1ccc3c(c1)OCO3)C2,55*,nt,0,nt
O=C(c1ccc2c(c1)OCO2)N1CCC(Cc2ccccc2)CC1,25*,nt,nt,nt
O=C(C[C@@H]1CC[C@H]2[C@@H](COC[C@H](O)CN2S(=O)(=O)c2ccc(Cl)cc2)O1)NCCN1CCCCC1,-13,nt,0,nt
C[C@H](CO)N1C[C@H](C)[C@@H](CN(C)S(=O)(=O)c2ccccc2)Oc2ccc(N(C)C)cc2C1=O,-2,3,-6,0
COCC(=O)Nc1ccc2c(c1)[C@@H]1C[C@@H](CC(=O)NCCc3ccccc3)O[C@@H](CO)[C@@H]1O2,8,-3,3,-1
CC(C)C[C@@H]1NC(=O)[C@H]2C[C@@H](C(=O)NCCCCCNC(=O)CS)[C@@H](c3cccc(OCCO)c3)N2C1=O,21*,-14,nt,-4
NCCCCCCNC(=O)[C@H]1C[C@H]2C(=O)N[C@@H](Cc3ccccc3)C(=O)N2[C@H]1c1cccc(OCCO)c1,21*,-13,nt,49
NCCCCCNC(=O)[C@@H]1C[C@@H]2C(=O)N[C@@H](Cc3ccccc3)C(=O)N2[C@@H]1c1cccc(OCCO)c1,1,nt,nt,-4
O=C(C[C@H]1CC[C@@H]2[C@H](COC[C@@H](O)CN2C(=O)c2ccccc2F)O1)N1CCCCC1,-5,5,0,0
O=C1[C@@H]2[C@H](C(=O)N1c1ccccc1)[C@@]13COC[C@H](c4ccccc4)N1C(=O)[C@]2(C(=O)NCc1ccccc1)O3,4,nt,nt,2
CCC(=O)N1CC2(CCN(C(=O)c3cccnc3)CC2)c2c([nH]c3cc(OC)ccc23)[C@H]1CO,4,nt,0,nt
C[C@@H]1CN([C@@H](C)CO)C(=O)c2cccc(NC(=O)C3CC3)c2O[C@H]1CN(C)CC1CC1,15,-7,-3,-2
C[C@@H]1CN([C@@H](C)CO)C(=O)c2cccc(NC(=O)C3CC3)c2O[C@@H]1CN(C)CC1CC1,-2,-9,-3,-1
C[C@@H]1CN([C@H](C)CO)C(=O)c2cccc(NC(=O)C3CC3)c2O[C@@H]1CN(C)CC1CC1,-4,-8,77*,-1
C[C@@H]1CN([C@H](C)CO)C(=O)c2cccc(NC(=O)C3CC3)c2O[C@H]1CN(C)CC1CC1,13,-6,111*,0
CN(C)CC(=O)N[C@@H]1CC[C@@H](CCNS(=O)(=O)c2ccccc2)O[C@H]1CO,-1,2,0,0
CO[C@@H]1CN(C)C(=O)c2ccc(NS(=O)(=O)CC(F)(F)F)cc2OC[C@@H](C)N(Cc2ccccn2)C[C@H]1C,0,8,0,34
CO[C@H]1CN(C)C(=O)c2ccc(NC(=O)C3CC3)cc2OC[C@H](C)N(C(=O)Cc2ccccn2)C[C@@H]1C,-7,2,0,-10
Cc1ccc(S(=O)(=O)N(C)C[C@@H]2Oc3ccc(NC(=O)c4ccncc4)cc3C(=O)N([C@H](C)CO)C[C@@H]2C)cc1,5,1,2,0

Shown with two lines to a compound: 5 of the compounds above
The line under a structure holds: DENV2 CPE rescue | UUG fidelity | E-sel inducer | Cneo AK release
NCCCCCCNC(=O)[C@H]1C[C@H]2C(=O)N[C@@H](Cc3ccccc3)C(=O)N2[C@H]1c1cccc(OCCO)c1
    21* | -13 | nt | 49
NCCCCCNC(=O)[C@@H]1C[C@@H]2C(=O)N[C@@H](Cc3ccccc3)C(=O)N2[C@@H]1c1cccc(OCCO)c1
    1 | nt | nt | -4
O=C(C[C@H]1CC[C@@H]2[C@H](COC[C@@H](O)CN2C(=O)c2ccccc2F)O1)N1CCCCC1
    -5 | 5 | 0 | 0
O=C1[C@@H]2[C@H](C(=O)N1c1ccccc1)[C@@]13COC[C@H](c4ccccc4)N1C(=O)[C@]2(C(=O)NCc1ccccc1)O3
    4 | nt | nt | 2
CCC(=O)N1CC2(CCN(C(=O)c3cccnc3)CC2)c2c([nH]c3cc(OC)ccc23)[C@H]1CO
    4 | nt | 0 | nt

Going on with the list:
structure,DENV2 CPE rescue,UUG fidelity,E-sel inducer,Cneo AK release
COc1ccc(S(=O)(=O)N(C)C[C@@H]2Oc3ccc(NC(=O)c4ccncc4)cc3C(=O)N([C@H](C)CO)C[C@@H]2C)cc1,-3,9,18,1
Cc1ccc(S(=O)(=O)N(C)C[C@H]2Oc3ccc(NC(=O)c4ccncc4)cc3CC(=O)N([C@H](C)CO)C[C@@H]2C)cc1,-5,-7,1,1
COc1ccc(S(=O)(=O)N(C)C[C@H]2Oc3ccc(NC(=O)c4ccncc4)cc3C(=O)N([C@@H](C)CO)C[C@@H]2C)cc1,-7,2,47*,34
COc1ccc(S(=O)(=O)N(C)C[C@H]2Oc3ccc(NC(=O)c4ccncc4)cc3C(=O)N([C@H](C)CO)C[C@H]2C)cc1,-1,-3,28*,-6
Cc1ccc(S(=O)(=O)N(C)C[C@@H]2Oc3ccc(NC(=O)c4ccncc4)cc3C(=O)N([C@@H](C)CO)C[C@H]2C)cc1,?,-1,-1,1
Cc1ccc(S(=O)(=O)N(C)C[C@@H]2Oc3ccc(NC(=O)c4ccncc4)cc3CC(=O)N([C@@H](C)CO)C[C@@H]2C)cc1,57*,-7,0,0
Cc1ccc(S(=O)(=O)N(C)C[C@@H]2Oc3ccc(NC(=O)c4ccncc4)cc3C(=O)N([C@H](C)CO)C[C@H]2C)cc1,31*,-6,2,-1
C[C@H](NC(=O)C[C@H]1C=C[C@@H](NC(=O)C2CCC2)[C@@H](CO)O1)c1ccccc1,-7,-4,0,0
Cc1noc(C)c1NC(=O)Nc1ccc2c(c1)C(=O)N([C@@H](C)CO)C[C@H](C)[C@H](CN(C)C(=O)CCCN(C)C)OCCCC[C@H](C)O2,?,13,0,52
COc1ccc(S(=O)(=O)N(C)C[C@@H]2Oc3ncc(-c4ccncc4)cc3C(=O)N([C@@H](C)CO)C[C@@H]2C)cc1,51*,5,1,6
COc1ccc2c3c(n(C)c2c1)[C@H](CO)N(Cc1nccs1)CC31CCN(C)CC1,10,nt,0,nt
COc1ccc2c3c(n(C)c2c1)[C@H](CO)N(CC1CC1)CC31CCN(Cc2nccs2)CC1,45*,nt,0,nt
COc1ccc2c3c(n(C)c2c1)[C@H](CO)N(S(C)(=O)=O)CC31CCN(Cc2nccs2)CC1,24*,nt,0,nt
COc1ccc2c3c(n(C)c2c1)[C@H](CO)N(Cc1nccs1)CC31CCN(C(C)=O)CC1,27*,nt,0,nt
CO[C@H](CN(C)Cc1nccs1)[C@H](C)CN([C@@H](C)CO)S(=O)(=O)c1ccc(C)cc1,0,nt,0,18
COCC(=O)N(C)C[C@@H]1Oc2cc(-c3ccc(OC)cc3)ccc2S(=O)(=O)N([C@H](C)CO)C[C@H]1C,12,4,0,2
O=C(C[C@H]1CC[C@H](NC(=O)c2cccnc2)[C@H](CO)O1)NCCN1CCCCC1,6,3,-1,1

Screening data: PubChem BioAssay, Broad Institute
